The source of these data is PubChem BioAssay AID2148 (The Scripps Research Institute Molecular Screening Center, 2009).

The structures appear in SMILES notation. Only a part is listed here, and it is no random draw. Calls of active or inactive are those of the source. No stated cut-off is given here; in the data, active means inhibition above about 22%; inactive means the rest.

For the experiment, the target named is Melanin-concentrating hormone receptor 1 (Homo sapiens) (UniProt Q99705). Briefly: MCHR1 antagonists in cells, counter-screen for GPR7 antagonist project, cell-based, fluorescence, human (AID 2148).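 Further: 0% = vehicle with agonist and 100% = vehicle without agonist.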 As to conditions: MCHR1-expressing cells, fluorescence antagonist assay; at 4.4 µM; active compounds read high. A general note: Counterscreens check selectivity or assay interference.
Turning to `O=C(O)c1cccc(Nc2c([N+](=O)[O-])cc([N+](=O)[O-])cc2[N+](=O)[O-])c1`, the inhibition (usually the change of the read-out against control, counted positive when it falls) is inactive: -10.1%.
Regarding `CCCOc1ccc(NP(C)(=O)Oc2ccc(Cl)cc2)cc1` (configuration not stated), the inhibition is inactive: 6.65%.
